The test addresses T1, rASIC3 (Rattus norvegicus, UniProt O35240).
T1 construct: expressed in transfected cells; host or cells: Xenopus laevis oocytes injected with cRNA
T1 sequence (O35240 1-533): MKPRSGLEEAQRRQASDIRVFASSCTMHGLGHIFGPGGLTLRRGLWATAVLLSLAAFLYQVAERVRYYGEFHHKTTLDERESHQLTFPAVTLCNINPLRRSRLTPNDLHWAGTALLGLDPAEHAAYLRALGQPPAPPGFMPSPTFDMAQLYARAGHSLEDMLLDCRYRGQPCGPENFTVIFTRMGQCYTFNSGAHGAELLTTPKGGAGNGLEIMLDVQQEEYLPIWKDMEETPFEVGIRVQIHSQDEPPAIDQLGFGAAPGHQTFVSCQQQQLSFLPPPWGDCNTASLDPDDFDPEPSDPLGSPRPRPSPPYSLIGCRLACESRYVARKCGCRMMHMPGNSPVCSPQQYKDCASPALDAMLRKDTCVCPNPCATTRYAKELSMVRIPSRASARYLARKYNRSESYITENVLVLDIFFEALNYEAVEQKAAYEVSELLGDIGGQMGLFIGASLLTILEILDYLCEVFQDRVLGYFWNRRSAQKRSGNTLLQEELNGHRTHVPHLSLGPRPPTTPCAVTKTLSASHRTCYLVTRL
Put plainly: TEVC on Xenopus oocytes expressing rASIC3. It counts as cell-based. As for the experimental part: The ability of the peptides of the invention to modulate ASIC currents was assessed using two-electrode voltage clamp (TEVC) electrophysiology experiments performed on Xenopus laevis oocytes expressing homomeric ASIC channels. Xenopus oocytes are widely used as an expression system for functional characterisation of ion channel modulators. TEVC allows measurement of whole-cell ion channel currents while controlling the membrane potential.
Oocytes were harvested from anaesthetised female X. laevis then defolliculated by treatment with collagenase (Sigma, type I). Oocytes were injected with in vitro transcribed ASIC cRNA (capped RNA). Oocytes were kept at 17-18° C. in ND96 solution containing 96 mM NaCl, 2 mM KCl, 1.8 mM CaCl2, 2 mM MgCl2, 5 mM HEPES, 5 mM pyruvic acid, 50 μg/ml gentamicin (pH 7.4), and fetal horse serum (2.5%), and experiments were performed at room temperature (21-22° C.) 1-3 days after cRNA injection. Oocytes were clamped at −60 mV (Warner OC-725C oocyte clamp; Warner Instruments, CT, USA) using two standard glass microelectrodes of 0.5-2 MΩ resistance when filled with 3 M KCl. Data acquisition and analysis were performed using pCLAMP software, Version 10 (Axon Instruments, CA, USA). Currents were elicited by a drop in pH from 7.45 to 6.0 using a microperfusion system to allow rapid solution exchange. […]

Take `CC[C@H](C)[C@@H]1NC(=O)[C@@H](NC(=O)[C@H](CCC(=O)O)NC(=O)[C@H](CC(N)=O)NC(=O)[C@@H](N)CO)CSSC[C@@H]2NC(=O)[C@@H]3CSSC[C@@H](C(=O)N[C@H](C(=O)N4CCC[C@H]4C(=O)N[C@H](C(=O)N4CCC[C@H]4C(=O)NCC(=O)N[C@@H](Cc4ccccc4)C(=O)N[C@H]4CSSC[C@@H]5NC(=O)[C@@H]6CSSC[C@@H](C(=O)N[C@@H](C)C(=O)N7CCC[C@H]7C(=O)N[C@H](C(=O)N[C@H](C(=O)O)[C@@H](C)O)[C@@H](C)CC)NC(=O)[C@H](C(C)C)NC(=O)[C@H](CO)NC(=O)[C@H](CO)NC(=O)[C@H](CCCCN)NC(=O)[C@H](CC(N)=O)NC(=O)CNC(=O)[C@H](CO)NC(=O)[C@H](CCCNC(=N)N)NC(=O)[C@H](CCCCN)NC(=O)[C@H](Cc7c[nH]c8ccccc78)NC(=O)[C@H](CSSC[C@H](NC(=O)[C@H](CCC(N)=O)NC(=O)[C@H](CCCCN)NC(=O)[C@H](Cc7c[nH]c8ccccc78)NC(=O)[C@H](CCCCN)NC(=O)[C@H](C(C)C)NC(=O)[C@H](CC(C)C)NC4=O)C(=O)N[C@@H](CC(=O)O)C(=O)NCC(=O)N[C@@H](CCCNC(=N)N)C(=O)N[C@@H](CCC(=O)O)C(=O)N[C@@H](CCCNC(=N)N)C(=O)N[C@@H](CC(=O)O)C(=O)N6)NC(=O)[C@H](CCC(=O)O)NC(=O)[C@H](CC(C)C)NC(=O)CNC(=O)[C@H](C)NC5=O)[C@@H](C)CC)C(C)C)NC(=O)[C@H](C(C)C)NC(=O)[C@H](CCC(=O)O)NC(=O)[C@H](Cc4ccccc4)NC(=O)[C@H](CO)NC(=O)[C@H](Cc4c[nH]cn4)NC(=O)[C@H](CCCNC(=N)N)NC(=O)[C@H](CCCNC(=N)N)NC(=O)[C@H](CCCCN)NC(=O)[C@H](Cc4ccc(O)cc4)NC(=O)[C@H](CSSC[C@H](NC(=O)[C@H](CO)NC(=O)[C@H](CC(C)C)NC(=O)[C@H](Cc4c[nH]c5ccccc45)NC(=O)[C@H](CCCCN)NC(=O)[C@H](CCCNC(=N)N)NC1=O)C(=O)N[C@@H](C(C)C)C(=O)N[C@@H](CC(=O)O)C(=O)N[C@@H](CCCNC(=N)N)C(=O)N[C@@H](CCCCN)C(=O)N[C@@H](CC(N)=O)C(=O)N[C@@H](CC(=O)O)C(=O)N3)NC(=O)[C@H](CCC(=O)O)NC(=O)[C@H](CC(C)C)NC(=O)CNC(=O)[C@H](CCC(=O)O)NC2=O` [Hi1a]: the “Effect on rASIC3 current” value is recorded as “minimal effect” (30 nM at pH 7.45) and “no effect” (1 μM at pH 7.45).

The values above are taken from US10881712B2, “Neuroprotective agents derived from spider venom peptides” (THE UNIVERSITY OF QUEENSLAND, priority 2015, dated 2021).
